Here are results for 23 molecules from PubChem BioAssay AID1022 (Emory University Molecular Libraries Screening Center, 2008).

The chains behind the UniProt entries cited, without tags or fusion partners.
UniProt Q07820, whole entry, looked up: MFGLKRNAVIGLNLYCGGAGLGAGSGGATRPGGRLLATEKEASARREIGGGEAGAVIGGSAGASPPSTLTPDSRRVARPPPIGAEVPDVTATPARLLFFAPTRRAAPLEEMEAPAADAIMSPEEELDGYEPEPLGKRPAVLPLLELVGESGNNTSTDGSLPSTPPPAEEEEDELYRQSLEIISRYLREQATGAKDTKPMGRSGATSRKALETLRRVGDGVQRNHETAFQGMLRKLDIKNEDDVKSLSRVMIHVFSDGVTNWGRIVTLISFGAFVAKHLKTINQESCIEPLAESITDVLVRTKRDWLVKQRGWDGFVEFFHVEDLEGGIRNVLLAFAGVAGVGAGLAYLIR

This is a selection; strong and weak results do not stand in their true shares. The source made the active and inactive calls.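 The calls were made as follows: active = compounds that cut the protein-peptide binding signal by more than 50% relative to plate controls in a single-dose test; inactive = the rest.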

The target of this assay is Induced myeloid leukemia cell differentiation protein Mcl-1 (Homo sapiens) (UniProt Q07820). The experiment in a line: disruptors of Mcl-1 and Noxa BH3 peptide – biochemical, TR-FRET, 1536-well, primary screen (AID 1022).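 Also: His-tagged Mcl-1 with rhodamine Noxa BH3 peptide and terbium anti-His antibody; 0% = Mcl-1 plus Noxa peptide wells and 100% = peptide-only wells.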 The conditions noted are these: TR-FRET Mcl-1/Noxa peptide binding, 2 h; at 21.7 µM; active compounds read high. A general note: TR-FRET usually uses a lanthanide donor and a delayed reading to cut background.
Broadly, the inhibition is the drop in the measured response relative to a control, in per cent. `O=P(Nc1ccccn1)(c1ccc(Br)cc1)c1ccc(Br)cc1`: the inhibition is inactive: 18.4%.
Consider `c1nnnn1CCn1cnnn1`, for which the inhibition was inactive: -3.05%.
Regarding `O=P(Nc1nccs1)(c1ccccc1)c1ccccc1`, the inhibition is inactive: 0.2%.
Turning to `CC(C)C(=O)NC(Sc1ccccc1)C(Cl)(Cl)Cl` (stereo not drawn), the inhibition was inactive: 7.57%.
The same measure for `CC(=O)Nc1ccc([As](=O)(O)O)c(O)c1`: inactive: -0.24%.
As for `CC(=O)Nc1ccc(Oc2c([N+](=O)[O-])cc([N+](=O)[O-])cc2[N+](=O)[O-])cc1`, the inhibition was inactive: 17.2%.
On to `C[C@H]1OP(=O)(Oc2ccccc2)C[C@@H]2O[C@@H]21` (stereo partly drawn), for which the inhibition was inactive: -7.8%.
Regarding `C[C@@H]1C=CCP(=O)(Oc2ccccc2)O1` (stereo partly drawn), the inhibition is inactive: -1.18%.
Consider `CC(C)(C)C(=O)NC(Sc1ccccc1)C(Cl)(Cl)Cl` (stereo not drawn), for which the inhibition is inactive: 8.12%.
For `O=P1(Nc2nc3ccc(Cl)cc3s2)COc2ccccc2O1` (stereo not drawn), the inhibition is inactive: 2.85%.
The same measure for `CCOc1ccc(C2=NCC(CBr)S2)cc1` (stereo not drawn): inactive: 25.8%; for `Cc1ccccc1OP(=O)(Nc1ccccn1)Oc1ccccc1C`: inactive: -4.86%; for `O=c1c2cc([N+](=O)[O-])ccc2[nH]c2c([N+](=O)[O-])cc([N+](=O)[O-])cc12`: active: 55%.
The same measure for `CN(C)C(=O)Oc1noc2ccccc12`: inactive: -8.05%; for `COC(=O)c1cc2c(s1)N=C(c1ccccc1)N(C)P2(=O)N1CCOCC1` (stereo not drawn): inactive: 8.73%; for `CC(=O)NC(SC(=S)N(CC(C)C)CC(C)C)C(Cl)(Cl)Cl` (stereo not drawn): inactive: 37.2%.
The same measure for `Cc1ccc(OP(=O)(Nc2ccccn2)Oc2ccc(C)cc2)cc1`: inactive: -7.37%; for `CCC(=O)N1C2C3N(C(=O)CC)C1C1N(C(=O)CC)C(C(N1C(=O)CC)N3C(=O)CC)N2C(=O)CC`: inactive: -21.8%.
With `O=C(NC1CCS(=O)(=O)C1)NP(=S)(Oc1ccccc1)Oc1ccccc1` (stereo not drawn), the inhibition is active: 69%.
`CCNC(=S)/N=C(\N)N[N+](=O)[O-]`: the inhibition was inactive: -11%.
For the molecule `c1ccc(-c2nn[nH]n2)c(-c2nn[nH]n2)c1`, the inhibition was inactive: 25.4%.
Consider `Cc1ccc(NP(=O)(Oc2cccc(C)c2)Oc2cccc(C)c2)nc1`, for which the inhibition was inactive: -3.11%.
Turning to `CCOC(=O)NC(Sc1ccccc1)C(Cl)(Cl)Cl` (stereo not drawn), the inhibition is inactive: -6.46%.
